The values that follow are results of earlier work, collected in US7381523B2, “Methods for identifying compounds for treating diabetes mellitus” (BioCrine AB, priority 2004, dated 2008).

Protein sequences, listed by entry. Tags and fused reporters are not part of them.
UniProt P35346, whole entry, species assumed: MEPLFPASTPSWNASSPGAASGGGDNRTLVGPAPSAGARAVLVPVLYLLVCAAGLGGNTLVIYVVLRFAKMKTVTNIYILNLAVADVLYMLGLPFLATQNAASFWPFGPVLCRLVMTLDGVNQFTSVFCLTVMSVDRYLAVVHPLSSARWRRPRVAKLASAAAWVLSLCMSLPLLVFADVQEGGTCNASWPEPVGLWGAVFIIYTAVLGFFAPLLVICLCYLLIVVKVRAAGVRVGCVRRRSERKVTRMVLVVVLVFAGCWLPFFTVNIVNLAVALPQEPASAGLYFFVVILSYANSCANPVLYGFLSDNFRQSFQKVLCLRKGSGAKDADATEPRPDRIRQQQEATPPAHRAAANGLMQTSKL

The series addresses SSTR5 (Homo sapiens, UniProt P35346). As to conditions: previous work.

For the substance “Ser-Ala-Asn-Ser-Asn-Pro-Ala-Met-Ala-Pro-Arg-Glu-Arg-Lys-Ala-Gly-Cys-Lys-Asn-Phe-Phe-Trp-Lys-Thr-Phe-Thr-Ser-Cys [SS-28]”, the “affinity of SSTR5 relative to SSTR1-4” value is on record as 10 fold.
